Experimental data: patent US20090028888A1, “Cancer Antigen Mage-A9 and Uses Thereof” (priority 2005, published 2009)

Test system: MAGE-A9 gene expression in bladder cancer cell lines
Test: RT-PCR analysis of MAGE-A9 gene expression induction in bladder cancer cell lines
Details: MGH-U3, 5637 and VMCUB-3, 0.5 μM Apicidin; for MAGE-A9 expression induction, HDAC inhibitor alone: 1 μM MS-275 or 2 mM 4-PB, 48 h; for level of MAGE-A9 mRNA expression, addition to 5-AZA-DC: cells previously treated for 48 hours with 1 μM 5-AZA-DC, 1 μM MS-275 or 2 mM 4-PB for last 48 hours

With `O=C(O)CCCc1ccccc1` [4-PB, 4-phenylbutyrate] the “MAGE-A9 expression induction, HDAC inhibitor alone” value was “did not induce” and the “level of MAGE-A9 mRNA expression, addition to 5-AZA-DC” value was “augmented considerably”.
For `Nc1ccccc1NC(=O)c1ccc(CNC(=O)OCc2cccnc2)cc1` [MS-275], the “MAGE-A9 expression induction, HDAC inhibitor alone” value was “did not induce” and the “level of MAGE-A9 mRNA expression, addition to 5-AZA-DC” value was “augmented considerably”.
